Our source for the Ki values is ChEMBL document CHEMBL1131428, “Immunophilins: beyond immunosuppression” (J Med Chem, 1998).

Amino acid sequences for entries named in this document (tags omitted).
UniProt P62942, whole entry: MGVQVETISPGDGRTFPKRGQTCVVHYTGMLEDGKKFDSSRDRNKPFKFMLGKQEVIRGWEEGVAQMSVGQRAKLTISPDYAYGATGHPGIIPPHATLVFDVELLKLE

Molecules are shown by their SMILES.

This assay concerns the target Peptidyl-prolyl cis-trans isomerase FKBP1A (Homo sapiens, UniProt P62942). The assay can be described thus: Compound was tested for its ability to inhibit FK506 binding protein 12 rotamase activity.

In general, Ki refers to a measure of affinity in units of concentration, obtained from inhibition or displacement. A high value points to a looser hold on the target. In turn, `COc1cc(C(=O)C(=O)N2CCCCC2C(=O)OC(CCCc2ccccc2)CCCc2cccnc2)cc(OC)c1OC` (stereo unspecified) displayed a Ki of 0.5 nM. In other words, the sub-nanomolar range.
